Literature values, collected in patent US8716300B2, “Frequency modulated drug delivery (FMDD)” (Synthonics, Inc., priority 2008, dated 2014).

Details: stability of the magnesium-ligand complex

glycine-magnesium
log Keq: 1.34
